Values of other authors in publication PMC11768359, “2-Aminothiophene Derivatives—New Drug Candidates Against Leishmaniasis: Drug Design, Synthesis, Pharmacomodulation, and Antileishmanial Activity” (Pharmaceuticals, 2025).

System: RAW 264.7 macrophages
Conditions: previously published; cited from earlier work

Question: Which CC50 does the source give for `N#Cc1c(N)sc2c1CCCC2` [Compound 5] here?
Answer: 125 µM
